Antibody variant affinities, Ab-14 light chain, assay 1

All variants were tested on one target, the spike HR2 peptide PDVDLGDISGINAS (SARS-CoV-2).

Ab-14 is the parent antibody, in scFv form: VH, then the linker GGGGSGGGGSGGGGS, then VL. The heavy chain is unchanged in all variants.
VH: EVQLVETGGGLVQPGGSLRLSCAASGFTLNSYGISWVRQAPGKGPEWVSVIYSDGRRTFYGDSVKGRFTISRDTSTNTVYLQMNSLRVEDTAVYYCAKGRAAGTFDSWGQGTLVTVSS
VL: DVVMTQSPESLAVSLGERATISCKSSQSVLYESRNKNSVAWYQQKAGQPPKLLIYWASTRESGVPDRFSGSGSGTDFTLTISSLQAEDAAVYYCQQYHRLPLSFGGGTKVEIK

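The starting antibody came from a phage panning campaign against this peptide. Library AAYL50 holds single substitutions and randomly drawn double and triple substitutions in the CDRs. The assay is AlphaSeq: two haploid yeast populations carry antibody and antigen on their surface. After mating in shaken culture at 30 °C for 16 h, diploids were selected and their barcode pairs sequenced. A regression on co-assayed BCL2-family reference pairs converts the normalised counts of each replicate to an apparent Kd. There are three technical replicates.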

Positions count from residue 1 of the parent VL; S33P puts P in place of S. Affinities are written as log10 Kd with Kd in nM; a lower number is a better binder. The mean shown is taken over the replicates in which the pair was detected. Where no diploid with the target was found in that replicate, the entry reads "n.d.": below detection, most likely a poor binder, though not proof of it. Nonspecific signal, from three strains lacking the peptide, appeared in 18% of pairings of library AAYL50, centred on 4.19 (5% of these signals below 2.99); values are not corrected for it. Also given: how often the same scFv was detected with the empty control strains, with their mean in brackets.

changes,"replicates, log10 nM","log10 Kd (nM), mean",control signals
S33P+V39R+A57Q,n.d. / n.d. / n.d.,n.d.,0/9
R34F+S103F,3.94 / n.d. / n.d.,3.94,1/9 (3.30)
S28W+S58K,3.64 / 2.94 / 2.79,3.12,2/9 (3.02)
L30W+E61P+L100E,3.71 / 3.36 / 3.82,3.63,5/9 (4.09)
K36A+A57V+Y97K,2.93 / 2.64 / 3.54,3.04,4/9 (4.18)
V29M+Q95S+Y97A,2.96 / 2.40 / 2.52,2.63,2/9 (4.37)
S26Y+T59F+S62G,n.d. / n.d. / n.d.,n.d.,0/9
S25C+W56C+L100M,n.d. / n.d. / n.d.,n.d.,0/9
K24L+S28P+Q95G,1.89 / 2.00 / 1.72,1.87,0/9
K36A+S58P+Y97W,n.d. / 3.76 / n.d.,3.76,0/9
Y31H+Q95S+S103Q,3.91 / 3.18 / 3.91,3.67,3/9 (3.82)
K24D+R60L+Y97S,n.d. / n.d. / n.d.,n.d.,4/9 (4.70)
N35I+R60V,4.15 / n.d. / 5.06,4.61,0/9
K36G+Q95N+Y97E,3.69 / n.d. / n.d.,3.69,4/9 (3.91)
S25V+S62P+Q96V,0.86 / 1.13 / 0.94,0.98,3/9 (4.22)
R34S+N37K+S58C,n.d. / n.d. / n.d.,n.d.,0/9
S26T+Q96S,n.d. / 2.36 / 0.57,1.47,0/9
K24A+T59A+P101Y,n.d. / n.d. / n.d.,n.d.,1/9 (3.98)
Y31N+K36P+S38G,1.36 / 1.28 / 1.47,1.37,1/9 (3.29)
A57L+Y97C+S103I,3.30 / n.d. / 3.50,3.40,1/9 (3.83)
S33Y+K36D+A40I,n.d. / n.d. / 5.92,5.92,4/9 (4.16)
S38M+S62E+Q95D,0.99 / 1.90 / 2.37,1.75,0/9
N37E+S58H+T59W,3.20 / 2.88 / 3.38,3.15,0/9
K24T+E32R+S62T,2.73 / 2.33 / 2.32,2.46,4/9 (4.75)
S28M+E32G+R34P,1.25 / 1.24 / 1.22,1.24,5/9 (4.43)
S62Y+Q96A+H98D,1.68 / 2.24 / 2.14,2.02,4/9 (3.66)
V29D+S33Q+Q95W,1.94 / 2.12 / 2.10,2.05,2/9 (4.01)
R34Q+N37M+S38C,n.d. / n.d. / n.d.,n.d.,0/9
Y31V+K36L+L100Q,1.54 / 1.65 / 2.08,1.76,0/9
K24P+S26L+Q27V,4.15 / n.d. / 3.65,3.90,1/9 (4.40)

3 of these entries, quoted again:

changes,"replicates, log10 nM","log10 Kd (nM), mean",control signals
A57L+Y97C+S103I,3.30 / n.d. / 3.50,3.40,1/9 (3.83)
K24T+E32R+S62T,2.73 / 2.33 / 2.32,2.46,4/9 (4.75)
S33P+V39R+A57Q,n.d. / n.d. / n.d.,n.d.,0/9

Source: Engelhart et al. 2022 (doi:10.1038/s41597-022-01779-4), MIT Lincoln Laboratory and A-Alpha Bio; data file from the FLAb repository.